Test results: US9120752B2, “Pyridine compounds as sodium channel blockers” (Purdue Pharma, L.P., priority 2010, dated 2015)

By UniProt entry, the sequences of proteins in these tests, tags left out. Chains listed by the source or under a name are the forms on record and can include a tag or linker.
UniProt Q15858, other isoform, or with tags, fused parts or gaps: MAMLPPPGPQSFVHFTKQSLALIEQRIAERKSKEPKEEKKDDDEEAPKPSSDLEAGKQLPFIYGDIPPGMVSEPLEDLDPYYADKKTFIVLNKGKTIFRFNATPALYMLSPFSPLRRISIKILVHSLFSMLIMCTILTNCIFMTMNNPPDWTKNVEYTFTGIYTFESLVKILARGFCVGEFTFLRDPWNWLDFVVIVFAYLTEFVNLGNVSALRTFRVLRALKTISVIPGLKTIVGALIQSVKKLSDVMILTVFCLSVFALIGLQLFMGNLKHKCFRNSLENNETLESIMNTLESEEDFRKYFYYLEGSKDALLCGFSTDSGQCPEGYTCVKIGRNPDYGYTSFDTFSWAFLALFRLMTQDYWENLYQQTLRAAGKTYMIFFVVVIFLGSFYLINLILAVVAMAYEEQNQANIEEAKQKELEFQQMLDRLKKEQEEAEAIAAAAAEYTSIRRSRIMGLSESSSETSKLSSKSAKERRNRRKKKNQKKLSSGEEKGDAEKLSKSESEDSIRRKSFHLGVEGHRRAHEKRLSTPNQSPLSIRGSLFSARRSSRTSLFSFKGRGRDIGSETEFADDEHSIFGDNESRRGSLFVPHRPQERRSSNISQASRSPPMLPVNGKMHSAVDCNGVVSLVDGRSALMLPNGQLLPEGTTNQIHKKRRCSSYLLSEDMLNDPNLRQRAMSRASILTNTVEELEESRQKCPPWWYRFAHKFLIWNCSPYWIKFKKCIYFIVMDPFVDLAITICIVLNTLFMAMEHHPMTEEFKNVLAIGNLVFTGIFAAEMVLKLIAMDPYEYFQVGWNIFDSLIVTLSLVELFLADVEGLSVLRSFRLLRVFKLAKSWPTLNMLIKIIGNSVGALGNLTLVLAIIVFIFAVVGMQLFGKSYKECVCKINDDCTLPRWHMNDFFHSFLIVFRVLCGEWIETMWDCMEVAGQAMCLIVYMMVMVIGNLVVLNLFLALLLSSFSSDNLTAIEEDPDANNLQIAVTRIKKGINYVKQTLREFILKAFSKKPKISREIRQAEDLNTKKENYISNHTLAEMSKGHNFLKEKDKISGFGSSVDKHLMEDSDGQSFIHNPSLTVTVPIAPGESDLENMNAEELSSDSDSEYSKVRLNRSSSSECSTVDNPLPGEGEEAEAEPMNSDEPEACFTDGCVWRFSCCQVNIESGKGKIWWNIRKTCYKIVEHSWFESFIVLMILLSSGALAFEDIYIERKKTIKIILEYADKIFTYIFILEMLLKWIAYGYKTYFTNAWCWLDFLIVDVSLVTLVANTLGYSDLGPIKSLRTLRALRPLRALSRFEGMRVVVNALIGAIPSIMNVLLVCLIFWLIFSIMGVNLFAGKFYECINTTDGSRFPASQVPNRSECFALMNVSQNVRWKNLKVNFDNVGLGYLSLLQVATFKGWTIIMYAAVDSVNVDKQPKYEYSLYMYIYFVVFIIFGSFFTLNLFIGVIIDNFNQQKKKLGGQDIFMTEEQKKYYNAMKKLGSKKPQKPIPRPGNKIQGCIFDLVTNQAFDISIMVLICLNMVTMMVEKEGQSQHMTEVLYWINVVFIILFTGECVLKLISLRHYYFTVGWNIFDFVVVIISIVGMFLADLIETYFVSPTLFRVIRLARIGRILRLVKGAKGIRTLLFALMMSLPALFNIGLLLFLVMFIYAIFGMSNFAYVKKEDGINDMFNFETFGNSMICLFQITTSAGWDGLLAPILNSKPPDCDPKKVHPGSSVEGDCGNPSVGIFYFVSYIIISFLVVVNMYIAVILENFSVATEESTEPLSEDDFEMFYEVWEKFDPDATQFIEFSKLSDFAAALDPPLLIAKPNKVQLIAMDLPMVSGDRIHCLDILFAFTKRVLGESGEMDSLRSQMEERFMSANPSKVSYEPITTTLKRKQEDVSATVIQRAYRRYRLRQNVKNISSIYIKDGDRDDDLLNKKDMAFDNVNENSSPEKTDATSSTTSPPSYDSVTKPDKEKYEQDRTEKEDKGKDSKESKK

Biological target: human Nav1.7 (Homo sapiens (Human), UniProt Q15858)
Test: FLIPR or FLIPR TETRA sodium dye assay with KCl and test article pre-incubation
Format: cell-based
Conditions: sodium dye assay with KCl; recombinant Nav1.7/HEK293 cells; read-out: Nav1.7 IC50 (μM) ± SEM

Row | Compound | IC50
1 | O=C(NCCNS(=O)(=O)c1cccnc1)c1cccc(-c2ccc(Oc3ccc(F)cc3)cc2)n1 [Compound 22, 6-(4-(4-fluorophenoxy)phenyl)-N-(2-(pyridine-3-sulfonamido)ethyl)picolinamide] | 0.31 ± 0.03 µM
2 | C[C@H](NC(=O)c1cccc(-c2ccc(Oc3ccc(F)cc3)cc2)n1)C(N)=O [Compound 38, 6-[4-(4-fluoro-phenoxy)-phenyl]-pyridine-2-carboxylic acid ((S)-1-carbamoyl-ethyl)-amide] | 0.31 ± 0.03 µM
